pIC50: −log10 of the molar value.
Molecular target: Recombinant human cathepsin S (CatS) (Homo sapiens, UniProt P25774)
Assay: biochemical

The chains behind the UniProt entries cited, without tags or fusion partners. Residues count along the entry.
UniProt P25774, 115-331: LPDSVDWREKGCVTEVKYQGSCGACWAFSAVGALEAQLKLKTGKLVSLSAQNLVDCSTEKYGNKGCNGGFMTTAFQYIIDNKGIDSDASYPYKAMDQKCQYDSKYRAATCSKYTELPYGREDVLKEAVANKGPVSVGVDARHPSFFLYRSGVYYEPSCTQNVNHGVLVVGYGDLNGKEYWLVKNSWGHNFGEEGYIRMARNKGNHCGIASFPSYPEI

| Structure (SMILES) | pIC50 |
| --- | --- |
| CS(=O)(=O)N1CCc2c(c(-c3ccc(C(F)(F)F)c(SCCN4CCC(F)(F)CC4)c3)nn2C[C@@H](O)CN2CCC(c3ccccn3)CC2)C1 [Example 212, (2S)-1-{3-[3-{[2-(4,4-Difluoropiperidin-1-yl)ethyl]sulfanyl}-4-(trifluoromethyl)phenyl]-5-(methylsulfonyl)-4,5,6,7-tetrahydro-1H-pyrazolo[4,3-c]pyridin-1-yl}-3-(4-pyridin-2-ylpiperidin-1-yl)propan-2-ol] | 8.00 |
| CS(=O)(=O)N1CCc2c(c(-c3ccc(C(F)(F)F)c(SCCN4CCC(F)(F)C4)c3)nn2CC(O)CN2CCN(c3ccccc3C#N)CC2)C1 (stereo not drawn) [Example 840, 2-[4-(3-{3-[3-{[2-(3,3-Difluoropyrrolidin-1-yl)ethyl]sulfanyl}-4-(trifluoromethyl)phenyl]-5-(methylsulfonyl)-4,5,6,7-tetrahydro-1H-pyrazolo[4,3-c]pyridin-1-yl}-2-hydroxypropyl)piperazin-1-yl]benzonitrile] | 7.70 |
| CS(=O)(=O)N1CCc2c(c(-c3ccc(C(F)(F)F)c(SCCN4CCCCC4)c3)nn2CCCN2CCC(N3CCCC3=O)CC2)C1 [Example 5, 1-[1-(3-{5-Methanesulfonyl-3-[3-(2-piperidin-1-yl-ethylsulfanyl)-4-trifluoromethyl-phenyl]-4,5,6,7-tetrahydro-pyrazolo[4,3-c]pyridin-1-yl}-propyl)-piperidin-4-yl]-pyrrolidin-2-one] | 6.77 |
| CS(=O)(=O)N1CCc2c(c(-c3ccc(C(F)(F)F)c(SCCN4CCOCC4)c3)nn2CC(O)CN2CCN(c3ccccc3C#N)CC2)C1 (stereo not drawn) [Example 183, 2-(4-{2-Hydroxy-3-[5-(methylsulfonyl)-3-{3-[(2-morpholin-4-ylethyl)sulfanyl]-4-(trifluoromethyl)phenyl}-4,5,6,7-tetrahydro-1H-pyrazolo[4,3-c]pyridin-1-yl]propyl}piperazin-1-yl)benzonitrile] | 8.00 |
| Cn1c(=O)n(C2CCN(CCCn3nc(-c4ccc(C(F)(F)F)c(SCC(=O)N5CCOCC5)c4)c4c3CCN(S(C)(=O)=O)C4)CC2)c2cc(Cl)ccc21 [Example 889, 5-Chloro-1-methyl-3-(1-{3-[5-(methylsulfonyl)-3-{3-[(2-morpholin-4-yl-2-oxoethyl)sulfanyl]-4-(trifluoromethyl)phenyl}-4,5,6,7-tetrahydro-1H-pyrazolo[4,3-c]pyridin-1-yl]propyl}piperidin-4-yl)-1,3-dihydro-2H-benzimidazol-2-one] | 7.70 |
| CS(=O)(=O)N1CCc2c(c(-c3ccc(C(F)(F)F)c(SCCN4CCCCC4c4ccccc4)c3)nn2CCCN2CCC(N3CCCC3=O)CC2)C1 (stereo not drawn) [Example 35, 1-{1-[3-(5-Methanesulfonyl-3-{3-[2-(2-phenyl-piperidin-1-yl)-ethylsulfanyl]-4-trifluoromethyl-phenyl}-4,5,6,7-tetrahydro-pyrazolo[4,3-c]pyridin-1-yl)-propyl]-piperidin-4-yl}-pyrrolidin-2-one] | 5.68 |

The next lines start with the values.

| pIC50 | Structure (SMILES) |
| --- | --- |
| 7.19 | CC1CCN(CCSc2cc(-c3nn(C[C@@H](O)CN4CCC(NC(=O)[C@H](C)O)CC4)c4c3CN(S(C)(=O)=O)CC4)ccc2C(F)(F)F)CC1 [Example 761, (2S)-2-Hydroxy-N-{1-[(2S)-2-hydroxy-3-{3-[3-{[2-(4-methylpiperidin-1-yl)ethyl]sulfanyl}-4-(trifluoromethyl)phenyl]-5-(methylsulfonyl)-4,5,6,7-tetrahydro-1H-pyrazolo[4,3-c]pyridin-1-yl}propyl]piperidin-4-yl}propanamide] |
| 5.99 | CC(=O)N1CCN(CCSc2cc(-c3nn(CC(O)CN4CCN(C5CC5)CC4)c4c3CN(S(C)(=O)=O)CC4)ccc2C(F)(F)F)CC1 (stereo not drawn) [Example 682, 1-{3-[3-{[2-(4-Acetylpiperazin-1-yl)ethyl]sulfanyl}-4-(trifluoromethyl)phenyl]-5-(methylsulfonyl)-4,5,6,7-tetrahydro-1H-pyrazolo[4,3-c]pyridin-1-yl}-3-(4-cyclopropylpiperazin-1-yl)propan-2-ol] |
| 6.28 | CS(=O)(=O)N1CCc2c(c(-c3ccc(C(F)(F)F)c(SCCN4CCCCC4)c3)nn2CC(O)CN2CCC(O)C2)C1 (stereo not drawn) [Example 349, 1-{2-Hydroxy-3-[5-(methylsulfonyl)-3-{3-[(2-piperidin-1-ylethyl)sulfanyl]-4-(trifluoromethyl)phenyl}-4,5,6,7-tetrahydro-1H-pyrazolo[4,3-c]pyridin-1-yl]propyl}pyrrolidin-3-ol] |
| 6.89 | CS(=O)(=O)N1CCc2c(c(-c3ccc(C(F)(F)F)c(SCCN4CCC(F)CC4)c3)nn2CC(O)CN2CCC(C(=O)N3CCOCC3)CC2)C1 (stereo not drawn) [Example 854, 1-{3-[3-{[2-(4-Fluoropiperidin-1-yl)ethyl]sulfanyl}-4-(trifluoromethyl)phenyl]-5-(methylsulfonyl)-4,5,6,7-tetrahydro-1H-pyrazolo[4,3-c]pyridin-1-yl}-3-[4-(morpholin-4-ylcarbonyl)piperidin-1-yl]propan-2-ol] |
| 7.70 | CS(=O)(=O)N1CCc2c(c(-c3ccc(C(F)(F)F)c(SCCN4CCC(F)CC4)c3)nn2C[C@H](O)CN2CCC(c3c(Cl)cncc3Cl)CC2)C1 [Example 203, (2R)-1-[4-(3,5-Dichloropyridin-4-yl)piperidin-1-yl]-3-{3-[3-{[2-(4-fluoropiperidin-1-yl)ethyl]sulfanyl}-4-(trifluoromethyl)phenyl]-5-(methylsulfonyl)-4,5,6,7-tetrahydro-1H-pyrazolo[4,3-c]pyridin-1-yl}propan-2-ol] |
| 6.23 | CNC(=O)N1CCc2c(c(-c3ccc(C(F)(F)F)c(SCCN4CCC(F)CC4)c3)nn2C[C@@H](O)CN2CCCCC2)C1 [Example 252, 3-[3-{[2-(4-Fluoropiperidin-1-yl)ethyl]sulfanyl}-4-(trifluoromethyl)phenyl]-1-[(2S)-2-hydroxy-3-piperidin-1-ylpropyl]-N-methyl-1,4,6,7-tetrahydro-5H-pyrazolo[4,3-c]pyridine-5-carboxamide] |
| 7.19 | CS(=O)(=O)N1CCc2c(c(-c3ccc(C(F)(F)F)c(SCCN4CCC(F)CC4)c3)nn2C[C@H](O)CN2CCC(O)(c3ccccn3)CC2)C1 [Example 792, 1-[(2R)-3-{3-[3-{[2-(4-Fluoropiperidin-1-yl)ethyl]sulfanyl}-4-(trifluoromethyl)phenyl]-5-(methylsulfonyl)-4,5,6,7-tetrahydro-1H-pyrazolo[4,3-c]pyridin-1-yl}-2-hydroxypropyl]-4-pyridin-2-ylpiperidin-4-ol] |
| 6.80 | CS(=O)(=O)N1CCc2c(c(-c3ccc(C(F)(F)F)c(SCCN4CCOCC4)c3)nn2CC(O)CN2CCC(C(=O)N3CCCCC3)CC2)C1 (stereo not drawn) [Example 806, 1-[5-(Methylsulfonyl)-3-{3-[(2-morpholin-4-ylethyl)sulfanyl]-4-(trifluoromethyl)phenyl}-4,5,6,7-tetrahydro-1H-pyrazolo[4,3-c]pyridin-1-yl]-3-[4-(piperidin-1-ylcarbonyl)piperidin-1-yl]propan-2-ol] |
| 6.66 | CS(=O)(=O)N1CCc2c(c(-c3ccc(C(F)(F)F)c(SCCN4CCCCC4)c3)nn2CC(O)CN2CCC(N3CCCC3)CC2)C1 (stereo not drawn) [Example 641, 1-[5-(Methylsulfonyl)-3-{3-[(2-piperidin-1-ylethyl)sulfanyl]-4-(trifluoromethyl)phenyl}-4,5,6,7-tetrahydro-1H-pyrazolo[4,3-c]pyridin-1-yl]-3-(4-pyrrolidin-1-ylpiperidin-1-yl)propan-2-ol] |

From patent US20090099157A1, “TETRAHYDRO-PYRAZOLO-PYRIDINE THIOETHER MODULATORS OF CATHEPSIN S” (priority 2007, published 2009)
